In publication PMC6155208 one finds population of oligomers, TE model, population of oligomers, pGC model and stoichiometry N data, which are given here for 1 substance.

The experiment concerns the target α-Synuclein. Briefly: small-angle neutron scattering (SANS); αS at 2.5 or 5 mg/ml in 5 mM Mes pH 6.5 in D2O; oligomers collected at the oligomer collection time in the early lag phase of fibrillation; fit with the polydisperse Gaussian Coil model (Triaxial Ellipsoid model for comparison); size of the oligomer from the volume of the oligomer divided by that of one αS molecule.

A word on the stoichiometry N: it is a count of units in the complex or per binding partner. The substance α-Synuclein (natural protein) had a population of oligomers, TE model of 25%; a population of oligomers, pGC model of 68%; a stoichiometry N of 18.
